Drawing on US20140221282A1, “LONG DURATION DUAL HORMONE CONJUGATES” (priority 2011, published 2014), this text covers GLP-1 cyclase assay EC50 (control peptide) for one substance.

The target in this assay is rat GLP-1 receptor (rat) (UniProt P32301). Kind of assay: cell-based or functional assay.

With Exendin-4 (peptide), the GLP-1 cyclase assay EC50 (control peptide) came to 4 pM.
